# Literature values, collected in patent US20100158973A1 (HADASIT MEDICAL RESEARCH SERVICES & DEVELOPMENT LlIMITED, priority 2006, published 2010).
# The chains behind the UniProt entries cited, without tags or fusion partners.
# UniProt P34972, whole entry: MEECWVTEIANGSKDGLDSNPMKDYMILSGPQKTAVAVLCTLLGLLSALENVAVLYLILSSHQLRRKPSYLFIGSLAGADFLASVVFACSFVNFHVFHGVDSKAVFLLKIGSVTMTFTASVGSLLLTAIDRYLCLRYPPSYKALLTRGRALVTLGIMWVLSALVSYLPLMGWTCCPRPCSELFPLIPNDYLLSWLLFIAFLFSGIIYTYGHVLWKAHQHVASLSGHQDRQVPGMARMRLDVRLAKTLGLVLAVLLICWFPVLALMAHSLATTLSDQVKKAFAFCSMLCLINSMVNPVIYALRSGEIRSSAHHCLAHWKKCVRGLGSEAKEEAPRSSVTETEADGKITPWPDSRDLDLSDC
# Target: CB2 receptors (Homo sapiens, UniProt P34972)
# Conditions: literature reference 10; cited from earlier work
substance,measurement,value
Cannabidiol [CBD],binding to CB2 receptors,binds very weakly
